# Assay results as given in patent publication US20080279924A1, “HLA class I A2 tumor associated antigen peptides and vaccine compositions” (priority 1999, published 2008).
# Tested on: PBMC from healthy donors
# Format: cell-based, human
substance,measurement,value
aKXVAAWTLKAAa-NH2 [PADRE],potency relative to TT 830-843 antigen for activation of T cell responses,about 100 fold
